## scFv variants of Ab-91 (heavy chain) against a SARS-CoV-2 spike peptide

The measurements come from Engelhart et al. 2022 (doi:10.1038/s41597-022-01779-4) through the FLAb antibody collection.

Binding partner: SARS-CoV-2 spike HR2 peptide, sequence PDVDLGDISGINAS.

Parent: Ab-91, a human scFv built as VL, the linker GGGGSGGGGSGGGGS, VH. Only the CDRs of the heavy chain vary.
VL: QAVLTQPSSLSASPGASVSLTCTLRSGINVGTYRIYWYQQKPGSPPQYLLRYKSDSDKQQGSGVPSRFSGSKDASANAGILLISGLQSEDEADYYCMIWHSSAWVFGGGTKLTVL
VH: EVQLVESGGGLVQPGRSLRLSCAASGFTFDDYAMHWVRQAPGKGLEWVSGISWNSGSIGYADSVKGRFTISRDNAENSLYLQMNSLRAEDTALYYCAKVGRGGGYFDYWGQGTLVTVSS

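Phage display of a naive human antibody library on the peptide gave the parent. AAYL51 was designed without a model: most single CDR substitutions and a random sample of double and triple ones. The assay is AlphaSeq: two haploid yeast populations carry antibody and antigen on their surface. Pairs that bind mate more often; barcode pairs of the diploids are counted by sequencing. The ratio of observed to expected reads was calibrated, replicate by replicate, on BCL2-family standards whose Kd was known from biolayer interferometry. There are three technical replicates.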

Positions count from residue 1 of the parent VH; S57W puts W in place of S.
Numbers give log10(Kd / nM), so 0 is 1 nM and 3 is 1 µM. Smaller is tighter.
A mean of the replicates is given; it leaves out those without a signal.
"ND" means that the variant was in the library but no mating with the target was seen in that replicate; the authors take this as a sign of poor binding, and no number exists.

changes	log10 Kd, replicates	log10 Kd (nM), mean	control signals
S57W/Y60L/G104Q	ND 3.68 ND	3.68	2 of 9 (3.64)
W53Y/Y108N	ND ND ND	ND	2 of 9 (3.18)
D31V/D62K/Y105R	ND ND 4.28	4.28	5 of 9 (4.91)
D31G/M34S/G103Q	3.70 ND ND	3.70	2 of 9 (4.03)
D31R/G59A/V64A	4.46 4.15 ND	4.31	6 of 9 (4.59)
S63Q/V99Y/F106V	ND 5.39 ND	5.39	3 of 9 (4.61)
G56N/G100N	4.61 4.97 ND	4.79	0 of 9
F29L/Y32H/V99H	ND ND ND	ND	0 of 9
D31H/D62W	ND ND ND	ND	0 of 9
N54Q/S57T/K65W	ND ND ND	ND	0 of 9
Y60V/K65A	2.72 2.21 1.81	2.25	0 of 9
N54T/S55L/Y108A	ND ND ND	ND	1 of 9 (3.70)
T28L/V64K/G102M	ND ND ND	ND	0 of 9
T28M/G59N/Y108C	5.63 ND ND	5.63	0 of 9
I51N/G102T/Y105Q	ND ND ND	ND	0 of 9
D30R/D62G/V99T	1.48 1.17 0.80	1.15	1 of 9 (3.05)
D62M	ND 4.34 ND	4.34	0 of 9
D62I/V64W/K65I	ND 4.15 ND	4.15	2 of 9 (3.98)
T28G/V99E/F106M	4.90 ND ND	4.90	5 of 9 (5.27)
V99W/G102L/D107V	ND ND ND	ND	0 of 9
M34V/S52I/G100W	ND ND 4.35	4.35	0 of 9
G26W/D30P/G103I	ND ND 5.16	5.16	1 of 9 (4.11)
F27G/D62N/G103T	ND ND ND	ND	1 of 9 (3.06)
H35Y/F106C	4.94 4.37 4.99	4.77	7 of 9 (5.26)
A61L/D62I/K65V	ND 5.02 ND	5.02	3 of 9 (4.64)
F27D/M34K/Y105M	ND 4.08 3.10	3.59	0 of 9
F29Q/S57L/A61R	ND ND ND	ND	1 of 9 (2.27)
W53V/K65I/D107R	2.21 1.90 1.98	2.03	8 of 9 (4.75)
F27N/N54F/I58G	ND ND ND	ND	2 of 9 (4.11)
S57T/I58Y/Y60D	ND ND ND	ND	1 of 9 (4.79)
D31G/M34P/F106M	ND ND ND	ND	1 of 9 (4.65)
Y32M/H35N/G59H	ND ND ND	ND	0 of 9
F27C/M34Q/G104E	ND 4.24 ND	4.24	0 of 9
N54E/D62P/Y105A	3.14 3.17 3.25	3.19	0 of 9
D31H/G104H/D107A	1.81 1.90 1.60	1.77	6 of 9 (4.93)
S63Y/V64E/D107V	ND ND ND	ND	0 of 9
D31W/G50V/V99T	ND 4.83 4.04	4.44	3 of 9 (5.01)
I51E/Y60N/D107E	ND ND ND	ND	1 of 9 (5.70)
W53H/S55V/V99T	ND ND 4.13	4.13	0 of 9
G59S/D62N/R101N	3.18 3.35 ND	3.27	0 of 9
F27P/K65A/D107V	ND ND ND	ND	0 of 9
G59M/G103L/G104F	ND ND ND	ND	0 of 9
I51C/I58Q/G59Y	ND ND ND	ND	0 of 9
S52F/I58D	ND ND ND	ND	0 of 9
H35Y/G50W/S63K	5.73 ND ND	5.73	2 of 9 (5.10)
A33P/K65G/Y108M	2.56 2.35 3.00	2.64	0 of 9
T28S/S57R/A61D	4.96 5.07 ND	5.02	1 of 9 (5.53)
G56F/S57L/G102H	ND ND ND	ND	3 of 9 (3.17)
F29P/G56P/G103K	3.47 4.27 ND	3.87	2 of 9 (4.71)

Extract of 8 entries:

| changes | log10 Kd, replicates | log10 Kd (nM), mean | control signals |
|---|---|---|---|
| D31V/D62K/Y105R | ND ND 4.28 | 4.28 | 5 of 9 (4.91) |
| D62M | ND 4.34 ND | 4.34 | 0 of 9 |
| T28L/V64K/G102M | ND ND ND | ND | 0 of 9 |
| F29P/G56P/G103K | 3.47 4.27 ND | 3.87 | 2 of 9 (4.71) |
| F27D/M34K/Y105M | ND 4.08 3.10 | 3.59 | 0 of 9 |
| S63Q/V99Y/F106V | ND 5.39 ND | 5.39 | 3 of 9 (4.61) |
| Y32M/H35N/G59H | ND ND ND | ND | 0 of 9 |
| Y60V/K65A | 2.72 2.21 1.81 | 2.25 | 0 of 9 |

Background: pairings of library AAYL51 with three empty control strains gave a value in 21% of cases (median 4.54, 5th percentile 3.26). Values in that range, when seen in few replicates, are hard to tell from nonspecific mating. For each scFv, signals with the empty controls are counted beside the result, with their mean in brackets.
Parent in this assay: reference entry 1.86, copy in this library 0.88.